Data on one compound can be found in publication PMC5917010, “Structural basis for GPR40 allosteric agonism and incretin stimulation” (Nature Communications, 2018).

Amino acid sequences for entries named in this document (tags omitted).
UniProt Q76JU9, whole entry: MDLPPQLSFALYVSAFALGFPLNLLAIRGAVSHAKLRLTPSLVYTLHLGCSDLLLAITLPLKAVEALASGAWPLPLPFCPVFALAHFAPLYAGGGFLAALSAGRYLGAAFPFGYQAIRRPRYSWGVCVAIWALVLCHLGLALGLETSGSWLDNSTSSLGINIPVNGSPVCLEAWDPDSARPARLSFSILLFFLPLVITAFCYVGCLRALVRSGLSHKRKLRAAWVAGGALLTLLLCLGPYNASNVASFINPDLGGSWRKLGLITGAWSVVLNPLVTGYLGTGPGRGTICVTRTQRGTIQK

The target of the experiment is Mouse GPR40 (Mus musculus, UniProt Q76JU9). Description: Mouse GPR40 b-arrestin. Format: cell-based.

Molecules are shown by their SMILES.

As a reminder, the Emax is the greatest response seen or fitted, relative to the assay's reference. With `Cc1cc(OCCCS(C)(=O)=O)cc(C)c1-c1cccc(COc2ccc3c(c2)OC[C@H]3CC(=O)O)c1` [TAK-875], the maximum response (Emax) is 117%.
